This is a selection; strong and weak results do not stand in their true shares. Active and inactive are the calls of the source.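 Rule for the calls: active = inhibition above the mean of all tested compounds plus 3 SD (cut at about 49% in these data); inactive = the rest.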

By UniProt entry, the sequences of proteins in these tests, tags left out. Where a name states a change or a piece, a line headed by the entry shows the natural chain unless it says otherwise.
UniProt Q00G26: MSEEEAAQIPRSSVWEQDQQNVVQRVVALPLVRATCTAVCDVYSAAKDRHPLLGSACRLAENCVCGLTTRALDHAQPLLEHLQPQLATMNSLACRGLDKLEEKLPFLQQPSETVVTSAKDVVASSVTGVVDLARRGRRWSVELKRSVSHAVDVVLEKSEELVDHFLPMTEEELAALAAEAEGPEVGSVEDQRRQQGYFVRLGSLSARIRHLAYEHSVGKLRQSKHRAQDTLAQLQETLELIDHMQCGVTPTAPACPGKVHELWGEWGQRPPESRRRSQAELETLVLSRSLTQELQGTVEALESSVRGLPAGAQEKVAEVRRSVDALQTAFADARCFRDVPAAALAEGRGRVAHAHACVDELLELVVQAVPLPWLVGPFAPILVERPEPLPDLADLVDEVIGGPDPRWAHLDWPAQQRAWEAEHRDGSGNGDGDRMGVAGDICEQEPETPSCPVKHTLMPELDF
UniProt Q8WTS1: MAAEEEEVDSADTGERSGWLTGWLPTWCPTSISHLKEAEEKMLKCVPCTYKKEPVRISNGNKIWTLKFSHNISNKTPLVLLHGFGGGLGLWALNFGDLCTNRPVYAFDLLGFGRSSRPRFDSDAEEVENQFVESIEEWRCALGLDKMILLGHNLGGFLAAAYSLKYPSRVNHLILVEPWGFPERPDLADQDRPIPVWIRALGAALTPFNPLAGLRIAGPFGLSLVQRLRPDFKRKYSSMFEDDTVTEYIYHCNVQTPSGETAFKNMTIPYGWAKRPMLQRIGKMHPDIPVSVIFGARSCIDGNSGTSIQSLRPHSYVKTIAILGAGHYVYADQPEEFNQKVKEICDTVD

The target in this assay is Perilipin-5 (Homo sapiens) + 1-acylglycerol-3-phosphate O-acyltransferase ABHD5 (Homo sapiens) (UniProt Q00G26+Q8WTS1). Description: blockers of ABHD5 binding to perilipin-5 – cell lysate, split luciferase complementation, luminescence, NIH validation set, pilot screen (AID 493035).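 Note: 0% = DMSO only wells while the 100% control is not stated.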 The conditions noted are these: split G. princeps luciferase complementation, lysates, 4 h, at 7.9 µM, stronger effect = higher value.
Usually inhibition stands for the relative decrease from the control value, in per cent. Turning to `CN(C(=O)Cc1ccc(Cl)c(Cl)c1)[C@@H]1CCCC[C@H]1N1CCCC1`, the inhibition is inactive: -10.9%.

(Values after PubChem BioAssay AID493035 (The Scripps Research Institute Molecular Screening Center, 2011).)
